For the test, the target named is Human Recombinant Matriptase 2 (Homo sapiens, UniProt Q8IU80). As to the kind of experiment: Matriptase 2 inhibition, fluorescence based assay (Method I). Conditions: read-out: Mat-2 Ki; Table A; Ki of Matriptase-2 given as class symbols. How it is done:
• Method I: Test compounds were evaluated for their potential to inhibit Human Recombinant Matriptase 2 (in-house) using fluorescence based assay. The concentration of Recombinant Matriptase 2 and the substrate used in the assay was: 3.5 nM (In-house Matriptase 2) and 62 μM (Boc-Gln-Ala-Arg-7-amido-4-methyl coumarin hydrobromide −Cat log: I-1550 from Bachem) respectively. The assay buffer used was 50 mM TRIS pH 7.5, 150 mM NaCl, 0.01% Gelatin TCL059 Himedia). The assay was performed using 384 well black flat bottom plate from grenier (Cat log: 781076) at 25° C. The enzyme and compound were preincubated for 30 mins, the plate was read at 60 mins after substrate addition at wavelength Ex: 360/Em: 480 nm. The final assay volume was 20 μl. A stock solution of compounds was initially prepared in DMSO and appropriate dilutions were made and IC50 was determined for all the compounds (final DMSO conc in the assay was 1%). All the measurements were carried out using the Spectramax M5, Molecular devices.
To determine Ki values, dose response curves were generated by plotting percentage inhibition as a function of inhibitor concentration and the data was fitted to sigmoidal non-linear regression equation (variable slope) using Graph Pad prism software V8.

The chains behind the UniProt entries cited, without tags or fusion partners.
UniProt Q8IU80, whole entry: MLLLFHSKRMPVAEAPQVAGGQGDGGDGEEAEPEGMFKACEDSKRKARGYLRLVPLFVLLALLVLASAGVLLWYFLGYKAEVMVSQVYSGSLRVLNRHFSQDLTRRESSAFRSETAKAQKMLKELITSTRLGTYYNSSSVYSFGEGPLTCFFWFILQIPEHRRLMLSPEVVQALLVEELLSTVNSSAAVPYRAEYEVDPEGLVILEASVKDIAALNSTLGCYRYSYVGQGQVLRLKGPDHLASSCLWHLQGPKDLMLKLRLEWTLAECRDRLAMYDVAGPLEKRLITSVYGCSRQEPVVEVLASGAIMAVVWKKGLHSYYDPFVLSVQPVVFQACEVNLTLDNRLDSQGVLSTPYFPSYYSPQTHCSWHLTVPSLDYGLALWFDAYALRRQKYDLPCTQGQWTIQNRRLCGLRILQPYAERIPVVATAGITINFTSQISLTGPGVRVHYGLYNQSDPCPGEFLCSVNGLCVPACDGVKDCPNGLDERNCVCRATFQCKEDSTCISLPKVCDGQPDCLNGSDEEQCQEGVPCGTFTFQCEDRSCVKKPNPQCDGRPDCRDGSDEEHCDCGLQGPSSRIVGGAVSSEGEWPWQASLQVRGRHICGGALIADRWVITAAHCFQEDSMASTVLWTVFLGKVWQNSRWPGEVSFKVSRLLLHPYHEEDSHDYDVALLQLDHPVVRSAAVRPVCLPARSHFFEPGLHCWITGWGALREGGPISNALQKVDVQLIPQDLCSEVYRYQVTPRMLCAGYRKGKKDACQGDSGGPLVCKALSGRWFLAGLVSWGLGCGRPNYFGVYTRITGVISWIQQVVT

pKi: −log10 of the molar value.

Turning to `NCc1ccc2cc(C(=O)N[C@H]3CC[C@H](N)CC3)n(Cc3cccc4ccccc34)c2n1`, the pKi is 5.52 to 6.30.

As a reminder, the pKi is −log10 of the Ki, conventionally taken in molar units.

The values above are taken from US20240400553A1, “AMINE BASED MATRIPTASE 2 INHIBITORS AND USES THEREOF” (Disc Medicine, Inc., priority 2023, published 2024).
